For this assay, the target named is Her2 (UniProt P04626). In words: cell-based or functional assay.

For Trastuzumab emtansine (antibody), the EC50 of in vitro cytotoxicity (MTS cell viability assay) on JIMT-1 cells turned out to be 3.74 µg/mL.

Source of the values: patent publication US20230104728A1.
